Laboratory results: publication PMC8424805, “CGRP outflow into jugular blood and cerebrospinal fluid and permeance for CGRP of rat dura mater” (The Journal of Headache and Pain, 2021)

Assays:
systemic blood pressure = test: Systemic blood pressure in the femoral artery after topical CGRP; assay type: in vivo, rat; details: topical application of CGRP 10 μM onto dura mater; repeated measures ANOVA p = 0.83
Excerpt: (§1) Animals were anesthetized with 4% isoflurane (Forene, Abott, Wiesbaden, Germany) in a closed box administered with an evaporator system (Vapor 19.3, Dräger, Lübeck, Germany) and continued with 2.5% isoflurane supplied through a tight mask. After tracheotomy the animals were ventilated via a tracheal tube throughout the experiment with 2% isoflurane in oxygen-enriched room air to maintain a constant depth of anesthesia, constant blood pressure and failing motor reflexes upon noxious stimulation. A cannula connected to a pressure transducer was introduced into the exposed right femoral artery and fixed by ligatures. For systemic administration of substances, a venous catheter was inserted into the right femoral vein accordingly. […] Throughout the experiment vital parameters such as mean blood pressure, body temperature, respiratory rate and expiratory CO2 levels were monitored. The body temperature was recorded with a rectal probe and kept at 37 – 37.5 °C with a feedback-controlled heating plate (TKM 0902, Föhr Medical Instruments, Frankfurt, Germany) on which the animal’s body rested. […]
(§2) Blood flow was recorded by a laser Doppler system at a sampling rate of 10 Hz (DRT4, Moor Instruments, Axminster, U.K.) with needle type probes (tip diameter 0.8 mm). […] Blood flow was monitored and the experiment started only when the flow was constant, which lasted about 30 min. […]

[1] = test system: meningeal blood flow around the middle meningeal artery; test: Meningeal blood flow, laser Doppler recording after topical CGRP; assay type: in vivo, rat
Excerpt: as §1, §2

[2] = Ex vivo permeance of the dura mater for CGRP (trepanned skull in glass well, EIA); assay type: in vitro ADME, rat
Description: Each of the final CSF and plasma samples was processed using the EIA for human CGRP according to the instructions of the manufacturer (Bertin Pharma/SPIbio, Montigny le Bretonneux, France). The EIA is based on a double-antibody sandwich technique with monoclonal antibodies binding the CGRP molecule; the tracer antibody is conjugated with acetylcholine esterase converting Ellman’s reagent to a colour, the absorbance of which is measured by a photo-spectrometer (Opsys MR, Dynex Technologies, Denkendorf, Germany). The assay has full cross-reactivity also for rat CGRP with a difference in the range of the intra-assay variation and is detecting both α- and β-CGRP with the same sensitivity. For plasma samples 5 pg/mL is the lower limit of detection according to the manufacturer’s information. The CGRP concentrations in the original CSF and the plasma samples were calculated in pg/mL considering the added volume of EIA buffer.
Animals were exposed to 5% isoflurane in a closed box administered with an evaporator, followed by intraperitoneal injection of 180 mg/kg sodium thiopental, which induced deep anaesthesia with a minimum of vital functions (slow and flat ventilation, slow heart rate). The head of the animals was fixed in a stereotactic frame, the skin of the head was incised in the sagittal line and the skin flaps extended. The parietal periosteum was removed with an electric coagulator and the parietal bone on both sides trepanned with a dental drill under liquid cooling until a thin layer of bone was left, which was carefully removed with a fine forceps without causing any lesion of the parietal dura mater. Then the animal was exsanguinated, the head was separated, skinned and freed from muscles as far as possible. The skull was cut horizontally in a plane below the temporal fossa separating the apical from the basal skull and the brain was carefully removed, so that the transparent dura mater of the trepanned parietal region was visible from inside the cranium. The cranium was washed in SIF for 30 min at room temperature. After checking with SIF that the dura mater spanning the parietal bone had no leak, the cranium was mounted in a glass well with the inner surface of the dura side up (Fig. 2A). The well was filled with 500 μL SIF, so that the outer side of the dura mater was diving into the solution. After 5 min the solutions were carefully removed without touching the tissue and were replaced by fresh SIF, which was again removed after 5 min. […]
If at the same time point two samples of 25 μL CSF or plasma were collected and processed with the EIA, the two CGRP values were averaged prior to further calculations. Mean ± standard error of the mean (SEM) was calculated for corresponding data of repeated experiments. […]

[3] = CGRP concentration in cerebrospinal fluid after application of CGRP onto the exposed dura mater in vivo (EIA); design: species or system rat
Excerpt: Animals were anesthetized with 4% isoflurane (Forene, Abott, Wiesbaden, Germany) in a closed box administered with an evaporator system (Vapor 19.3, Dräger, Lübeck, Germany) and continued with 2.5% isoflurane supplied through a tight mask. After tracheotomy the animals were ventilated via a tracheal tube throughout the experiment with 2% isoflurane in oxygen-enriched room air to maintain a constant depth of anesthesia, constant blood pressure and failing motor reflexes upon noxious stimulation. A cannula connected to a pressure transducer was introduced into the exposed right femoral artery and fixed by ligatures. For systemic administration of substances, a venous catheter was inserted into the right femoral vein accordingly. In some experiments a third catheter was inserted into the exposed right external jugular vein and pushed forward close to the bifurcation of the subclavian and the internal jugular vein in order to take blood samples for measuring CGRP levels (Fig. 1A). To prevent salivation and smooth muscle spasms, atropine sulfate (Braun Melsungen AG, Melsungen, Germany, 0.5 mg/mL 1:10 with sodium chloride 0.9%) was subcutaneously injected. Throughout the experiment vital parameters such as mean blood pressure, body temperature, respiratory rate and expiratory CO2 levels were monitored. The body temperature was recorded with a rectal probe and kept at 37 – 37.5 °C with a feedback-controlled heating plate (TKM 0902, Föhr Medical Instruments, Frankfurt, Germany) on which the animal’s body rested. The expiratory CO2 was steady at 4.5-5% by modulating the ventilation frequency between 70 and 100 strokes per minute to suppress spontaneous breathing. An ointment (Bepanthen, Bayer, Leverkusen, Germany) protected the animal’s eyes. At the end of each experiment an overdose of sodium thiopental (Trapanal, Altana, Konstanz, Germany) was i.v. injected followed by exsanguination to terminate the experiment.
Animals were placed in a stereotactic frame, a snout clamp and ear bars fixed the position of the head. A median incision from the forehead to the neck exposed the skull. The parietal skull was carefully trepanned on both sides using a dental drill (KaVo Dental GmbH, Biberach, Germany) with saline cooling and a fine forceps to remove the innermost layer of the bone without breaching the dura. The exposed dura mater in the cranial windows with a size of about 6 × 4 mm was protected from drying with isotonic saline. In order to gain access to the cisterna magna, in most of the experiments the neck muscles were divided in the midline and held apart with a clamp so that the atlanto-occipital ligament with the underlying dura mater was exposed and covered with isotonic saline. […]

(rat) meningeal arteries = details: infusion of 1 μg/kg CGRP; cited from earlier work
Description: (§3) In accordance with earlier studies, the high concentration of 10 μM CGRP applied to the dura mater caused only mild increases in meningeal blood flow and no significant increase in cortical flow. There is striking discrepancy compared with the high sensitivity of isolated (human) cerebral arteries to CGRP with a half-maximal relaxation effect of about 0.1-1 nM [57, 58] or vasodilatation by 80% of (rat) meningeal arteries caused by infusion of 1 μg/kg CGRP, which is in the same molar range when calculated for its distribution in the extracellular compartments. Ther ...

[4] = test system: isolated (human) cerebral arteries; details: read-out: Half-maximal relaxation effect; cited from earlier work
Description: as §3

[5] = cited from earlier work
Excerpt: Compared to the high CGRP concentration applied onto the dura mater, the increase in CGRP in the jugular plasma and the CSF was very small. This may be due, at least in part, to some important limitations in our experiments. First, the jugular catheter was placed in proximal direction to collect blood from the internal jugular vein. Different to humans and cats, however, this vein is very thin in rat and thus may transport little amounts of blood from intracranial tissues to the cranial vena cava (see Fig. 1A). The main outflow of blood collected in the sinus system is via the anterior ...

[6] = test system: cerebral blood flow around the middle cortical artery; test: Cortical blood flow, laser Doppler recording after topical CGRP; assay type: in vivo, rat
Excerpt: as §1, §2

[7] = CGRP concentration in jugular plasma after application of CGRP onto the exposed dura mater in vivo (EIA); details: jugular vein catheter, EDTA plasma, rat, mean ± SEM, n = 4-9
Excerpt: as §1, with “accordingly. In some experiments a third catheter was inserted into the exposed right external jugular vein and pushed forward close to the bifurcation of the subclavian and the internal jugular vein in order to take blood samples for measuring CGRP levels (Fig. 1A).” for “accordingly.”

[8] = CGRP 1 μM topically onto dura mater, 5 experiments

Calcitonin gene-related peptide [CGRP]
Change in systemic blood pressure measured in the femoral artery (systemic blood pressure): did not lead to significant changes | Change in meningeal blood flow [1, 8]: not followed by a change | Meningeal blood flow normalized to baseline ([1]; CGRP 10 μM topically onto dura mater, within 5 min after application, baseline = minute prior to application, mean ± SEM, significant from the third minute): 107.4 ± 3.8% | CGRP level inside the skull (arachnoidal side) relative to level in the glass well (periostal side) ([2]; 1 nM CGRP applied on arachnoidal side, after 5 min, SIF pH 7.4, 500 μL well, n = 9, p < 0.001, decreasing difference after 15 min): more than double | Arachnoidal CGRP concentration relative to periostal CGRP concentration ([2]; SIF and 1 pM CGRP applied on arachnoidal side, 5 and 15 min, room temperature SIF pH 7.4, n = 9, no significant differences): roughly half | Fraction of applied CGRP concentration measured in the bath solution outside ([2]; after application of CGRP at 1 ng/mL (so in the source) on arachnoidal side, ex vivo rat dura): only a small fraction | Diffusion of CGRP through the dura mater into the glass well ([2]; nanomolar (1 nM) CGRP on arachnoidal side, 5 and 15 min, n = 9): diffuse only slowly through the dura mater | CGRP concentration in the last CSF sample ([3]; 35 min after 40 μl human α-CGRP 10 μM in SIF applied onto exposed parietal dura mater, CSF from cisterna magna, anaesthetised Wistar rat, EIA, mean ± SEM, n = 10): 191.5 ± 62.9 pg/mL | Increase of CGRP in the CSF compared to baseline ([3]; 35 min after dural application of CGRP 10 μM, rat in vivo, EIA): three-fold increase | Measured CGRP concentration at the pial arteries below the dura (CSF) ([3]; after topical CGRP 10 μM onto dura mater, rat in vivo, EIA, range stated in the discussion): 100 to 200 pg/mL | Measured CGRP concentration at the pial arteries below the dura (CSF), molar ([3]; after topical CGRP 10 μM onto dura mater, rat in vivo, converted from pg/mL): 20 to 40 pM | Vasodilatation of meningeal arteries ((rat) meningeal arteries): 80% | EC50 [4]: 0.1 to 1 nM | Half-live of CGRP in circulating blood [5]: ~10 min | Change in cortical blood flow [6, 8]: not followed by a change | Cortical blood flow normalized to baseline, peak ([6]; CGRP 10 μM topically onto dura mater, within 5 min after application, mean ± SEM, not significantly different to baseline): 102.6 ± 3.9% | CGRP plasma concentration (jugular) ([7]; 5 min after application of CGRP 10 μM (40 μl) onto dura mater): 108.3 ± 21.7 pg/mL | CGRP plasma concentration (jugular) ([7]; 15 min later, i.e. 20 min after application of CGRP 10 μM (40 μl) onto dura mater): 135.2 ± 59.5 pg/mL
